Test results taken from patent US20050191735A1, “Oxidoreductase” (priority 2003, published 2005).

System: reduced nicotinamide adenine dinucleotide phosphate
Assay: purified protein, by the assay type
Details: other: potassium phosphate buffer pH=7.0, enzyme solution 1:300

Substance: recombinant L. reuteri oxidoreductase (Limosilactobacillus reuteri subsp. reuteri)
- Km: 4 ± 1.8 µM
